{"source": "patent US20100221709A1", "about": "“METHODS FOR IDENTIFYING AGENTS THAT MODULATE APOPTOSIS IN CELLS THAT OVER-EXPRESS A BCL-2 FAMILY MEMBER PROTEIN” (priority 2005, published 2010)", "test_system": "TABX1A cells (Bcl-xL antisense)", "assay": "Cell viability by trypan blue dye exclusion", "details": "estimated from the dose-response curve", "from_the_text": "Briefly, a DNA fragment encoding the full-length mouse Bcl-xL cDNA was isolated from the plasmid pBS-BCL-xL (Tzung et al., Am. J. Path. 150:1985-1995 (1997), incorporated herein by reference in its entirety) by digestion with the restriction endonuclease EcoRI. This EcoRI fragment was cloned into the EcoRI site of the mammalian expression vector pSFFV (Fuhlbrigge et al., Proc. Nat. Acad. Sci. USA 85:5649-5653 (1988)) in both sense and antisense orientations, to form expression plasmids pSFFV-Bc/-xL-WT(sense) or pSFFV-Bc/-xL(antisense), respectively. The tumorigenic murine hepatocyte cell line TAMH was transfected by lipofection (Lipofectamine, Life Technologies, Rockville, Md., according to the manufacturer's recommendations) with the plasmids pSFFV-neo (the control), pSFFV-Bc/-xL-WT(sense) or pSFFV-Bc/-xL(antisense). Characterization of and culture conditions for the cell lines have been previously published (Wu et al., Proc. Nat. Acad. Sci. USA 91:674-78 (1994); Wu et al., Cancer Res. 54:5964-5973 (1994)). […]\nSelected transfectants were then tested for whole cell sensitivity to several apoptotic agents. […] Cell viability was determined by trypan blue dye exclusion. The percentage of viable cells was calculated by the number of viable cells (treated with a particular apoptogenic agent) divided by the number in the control group (untreated). […]"}
{"substance": "antimycin A", "values": [{"measurement": "LD50", "result": 8.3, "unit": "µM"}]}
